From publication PMC4249368 (Antimicrobial Agents and Chemotherapy, 2014)

What was measured:
MSSA ATCC 25923 [1] = conditions: MBC higher than MIC
Protocol: MICs against MSSA ATCC 25923 were measured by broth microdilution according to the Clinical and Laboratory Standards Institute (CLSI) M7-A7 methodology ([30]). Briefly, serial 2-fold dilutions of each antibiotic were added into Costar nontreated polystyrene 96-well plates, and each well was inoculated with 50 μl of MSSA in MHB to a final concentration of approximately 5 × 10^5 CFU/ml. […] The dilution representing the MIC and two of the more and less concentrated dilutions were plated out onto Trypticase soy agar plates and enumerated to determine viable CFU/ml ([31]). […]
25923 in MHB media in the presence and absence of Human serum (10% and 50%) in
Corning NonTC microtitre plates (CLS3370)
a The MBCs were determined by plating out the clear wells onto an agar plate and were incubated at
37°C overnight. Each colony represents one viable bacterium. […]

[2] = rats, 20-mg/kg i.v., agar dilution method; cited from earlier work
MSSA ATCC 25923 [3] = conditions: Table S1, MHB without serum, Corning NonTC microtitre plates (CLS3370)
Protocol: MSSA ATCC 25923 was purchased from the American Type Culture Collection (Manassas, VA). Mueller-Hinton broth (MHB; Bacto Laboratories Pty. Ltd.) was used to grow MSSA for determination of in vitro antibacterial activity in the presence and absence of 50% human serum (Life Technologies Australia, Melbourne, Australia) and time-kill assays. Luria-Bertani (LB) medium (Difco) and MHB adjusted with Ca^2+ (25 mg/liter) and Mg^2+ (12.5 mg/liter) (CA-MHB) were used for bacterial growth in the membrane depolarization assay and TEM, respectively. The phospholipids used for SPR analysis, 1-palmitoyl-2-oleoyl-sn-glycero-3-phosphoglycerol (POPG), 1-palmitoyl-2-oleoyl-sn-glycero-3-phosphocholine (POPC), and 1-palmitoyl-2-oleoyl-sn-glycero-3-phosphoethanolamine (POPE), were purchased from Auspep Pty. Ltd. (Melbourne, Australia).
MICs against MSSA ATCC 25923 were measured by broth microdilution according to the Clinical and Laboratory Standards Institute (CLSI) M7-A7 methodology ([30]). Briefly, serial 2-fold dilutions of each antibiotic were added into Costar nontreated polystyrene 96-well plates, and each well was inoculated with 50 μl of MSSA in MHB to a final concentration of approximately 5 × 10^5 CFU/ml. […] The dilution representing the MIC and two of the more and less concentrated dilutions were plated out onto Trypticase soy agar plates and enumerated to determine viable CFU/ml ([31]).

For ramoplanin, the “MBC relative to MIC” value (MSSA ATCC 25923 [1]) is listed as 2 fold, the C12 [2] is listed as 2 µg/mL and the “MIC, MHB” value (MSSA ATCC 25923 [3]) is listed as 2 µg/mL.
